Data as given in ChEMBL document CHEMBL5214883, “Comprehensive review for anticancer hybridized multitargeting HDAC inhibitors” (Eur J Med Chem, 2021).

The chains behind the UniProt entries cited, without tags or fusion partners.
UniProt Q92769, whole entry: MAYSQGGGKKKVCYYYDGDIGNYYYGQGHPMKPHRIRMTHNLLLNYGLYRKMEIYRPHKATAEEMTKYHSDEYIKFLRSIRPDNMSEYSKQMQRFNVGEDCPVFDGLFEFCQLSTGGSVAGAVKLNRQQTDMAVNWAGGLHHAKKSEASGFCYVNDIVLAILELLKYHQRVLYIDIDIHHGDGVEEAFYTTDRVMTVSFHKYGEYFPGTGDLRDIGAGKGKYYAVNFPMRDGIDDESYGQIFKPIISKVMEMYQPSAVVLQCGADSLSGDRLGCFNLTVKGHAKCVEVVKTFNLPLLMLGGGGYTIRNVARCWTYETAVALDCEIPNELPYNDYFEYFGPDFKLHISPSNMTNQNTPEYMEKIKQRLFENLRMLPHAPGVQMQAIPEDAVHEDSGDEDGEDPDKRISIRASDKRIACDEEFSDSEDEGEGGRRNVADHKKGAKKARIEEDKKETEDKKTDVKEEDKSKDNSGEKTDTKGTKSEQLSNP
UniProt Q13547, whole entry: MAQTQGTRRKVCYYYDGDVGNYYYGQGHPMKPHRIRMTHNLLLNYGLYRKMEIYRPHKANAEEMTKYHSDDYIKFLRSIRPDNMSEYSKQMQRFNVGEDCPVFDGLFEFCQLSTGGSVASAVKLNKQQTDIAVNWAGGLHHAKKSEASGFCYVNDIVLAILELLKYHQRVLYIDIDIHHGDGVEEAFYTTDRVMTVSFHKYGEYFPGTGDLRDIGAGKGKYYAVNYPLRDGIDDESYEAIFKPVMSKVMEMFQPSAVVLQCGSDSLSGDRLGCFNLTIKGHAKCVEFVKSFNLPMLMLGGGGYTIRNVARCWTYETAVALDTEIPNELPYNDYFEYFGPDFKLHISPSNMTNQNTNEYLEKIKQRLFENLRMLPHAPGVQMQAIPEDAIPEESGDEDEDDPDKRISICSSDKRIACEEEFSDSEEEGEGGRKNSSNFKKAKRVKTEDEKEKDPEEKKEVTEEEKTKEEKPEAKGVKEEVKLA

Columns and labels:
[1] = target: Histone deacetylase 2 (Homo sapiens, UniProt Q92769); assay: Inhibition of HDAC2 (unknown origin)
[2] = target: Histone deacetylase 1 (Homo sapiens, UniProt Q13547); assay: Inhibition of HDAC1 (unknown origin)

IC50 [1]: 380 µM
IC50 [2]: 38 µM
SMILES: O=C(CCCCCOc1no[n+]([O-])c1S(=O)(=O)c1ccccc1)NO
